# What was measured:
# Male Sprague-Dawley rats = experiment: Forced swim test in rats; type: in vivo, rat
# Source text: When rats are placed in a cylinder of water from which they cannot escape, they will remain immobile in the water for the majority of the test. Administration of antidepressants to rats decreases the amount of time spent immobile and increases swimming activity in the chamber (Porsolt et al., Nature, 266:730-732 (1977)). This test can be used to screen compounds for potential antidepressant activity (Cryan et al., Trends Pharmacol. Sci., 23:238-245 (2002)).
# Male Sprague-Dawley rats (200-250 g) were individually placed in vertical cylinders (height 40 cm, internal diameter 19 cm) containing water (25° C.) to a level of 15 cm, as described elsewhere (Porsolt et al., Nature, 266:730-732 (1977)). Water was changed between trials, and the procedure involved a pretest and a 5-minute test separated by 24 hours. During the pretest, rats (adapted to the experimental room for no less than 1 hour) were placed in the cylinder for 15 minutes. […]
# A time sampling technique was used to score behavior every 5 seconds during the 5 minute test period as described elsewhere (Detke et al., Psychopharmacology (Berl), 121:66-72 (1995)). At the end of each 5-second interval, the rat's behavior was observed and scored based on the criteria described elsewhere (Porsolt et al., Nature, 266:730-732 (1977)). […] Scores for each behavior (swimming or immobility) were expressed as total counts per 5-minute session. […]
# Male C57B1/6J mice = experiment: Tail suspension test in mice; type: in vivo, mouse
# Source text: A tail suspension test in mice similar to that described elsewhere (Steru et al., Psychopharmacology (Berl), 85:367-370 (1985)) can corroborate the results found using the forced swim test, with possible sensitivity to a broader range of antidepressants. When mice are suspended by their tail, there is an initial period of agitation, followed by immobility. This test identifies antidepressant compounds, which decrease the duration of immobility.
# Mice were then individually suspended by their tails 35 cm above the tabletop using an adhesive tape placed 1 cm from the tip of the tail. Behavior was scored every 5 seconds throughout the 6-minute test as either mobile or immobile. Mice were considered immobile only when hanging passively and completely motionless. Scores for each behavior were expressed as total counts per […]. Statistical analysis was performed using ANOVA followed by the Tukey test for post-hoc comparisons.
structure (smiles),measurement,setting,value
"CN(C)CC(c1ccc2ccccc2c1)C(O)C1CCCCC1 (racemic) [PRC025, (2RS,3SR)-N,N-dimethyl-3-cyclohexyl-3-hydroxy-2-(2′-naphthyl)propylamine]",antidepressant activity in forced swim test (in words),"Male Sprague-Dawley rats; PRC025 10 mg/kg i.p., compared with imipramine 15 mg/kg",antidepressant activity that was similar to that observed in rats treated with the positive control
same,swimming behavior versus saline (in words),"Male Sprague-Dawley rats; i.p., imipramine 15 mg/kg, PRC025 10 mg/kg",statistically more swimming behavior than rats treated with saline
same,antidepressant activity in tail suspension test (in words),Male C57B1/6J mice; PRC025 10 mg/kg i.p.,exhibited antidepressant activity
same,mobile behavior versus saline (in words),"Male C57B1/6J mice; i.p., PRC025 10 mg/kg, imipramine",statistically more mobile behavior than mice treated with saline
